Measurements published in US6417222B1, “[2-substituted-5-[3-thienyl)-benzyl]-2- ([2-isopropoxy-5-fluoro]-phenyoxy)-ethyl]-amine derivatives, method for the production and use thereof as medicaments” (Pierre Fabre Medicament, priority 1999, dated 2002).

Assay: Cataleptogenic power (extrapyramidal side effects)
Settings: rat, in vivo; rats, oral administration; read-out: Catalepsy ED50
Source text: 2—Evaluation of the antagonist activity of the D2 receptors and of the cataleptogenic effects of the compounds of the invention in vivo
The test for evaluating the propensity of the products of the invention to cause side effects of extrapyramidal order is based on their cataleptogenic power, measured in rats, according to the method described in Eur. J. Pharmacol. 1996, 313, 25.

Structure (SMILES): Cc1nc2n(c(=O)c1CCN1CCC(c3noc4cc(F)ccc34)CC1)CCCC2 [Risperidone, reference compound]
- ED50: 3.5 mg/kg
